How the values were obtained:
Format in all cases: physicochemical
[1] = maximum absorption wavelength and extinction coefficient by spectrophotometer in ethyl cellosolve
[2] = transmittance to visible ray of chloroform solution diluted to minimum transmittance of 5 to 6% at 750 to 1,100 nm; details: 1 cm quartz cell, minimum transmittance at 750 to 1,100 nm 5 to 6%, JIS R3106
[3] = solubility in toluene and methylethyl ketone, visual observation; details: room temperature (25° C.)
Procedure: The data of solubility shown in Table 1 represent the results of the rating which was conducted on the four-point scale, wherein .circleincircle. stands for a solubility of not less than 5% by weight, .smallcircle. for a solubility of not less than 1% by weight and less than 5% by weight, Δ for a solubility of not less than 0.1% by weight and less than 1% by weight, and X for a solubility of less than 0.1% by weight.

Question: Which Maximum absorption wavelength [1] does the source give for “penta(4-methoxyphenylamino)deca(4-methylphenyl-thio) copper phthalocyanine [Control 3]” here?
Answer: 849 nm

Question: What about the “Transmittance to visible ray” value [2] of the same substance?
Answer: 61%

Question: What about the “Solubility, MEK” value ([3]; methylethyl ketone) of the same substance?
Answer: .smallcircle. (a solubility of not less than 1% by weight and less than 5% by weight)

Question: And the “Solubility, Toluene” value ([3]; toluene)?
Answer: .circleincircle. (a solubility of not less than 5% by weight)
